Chains of the proteins cited; added tags and fusions are not shown.
UniProt P68400, whole entry: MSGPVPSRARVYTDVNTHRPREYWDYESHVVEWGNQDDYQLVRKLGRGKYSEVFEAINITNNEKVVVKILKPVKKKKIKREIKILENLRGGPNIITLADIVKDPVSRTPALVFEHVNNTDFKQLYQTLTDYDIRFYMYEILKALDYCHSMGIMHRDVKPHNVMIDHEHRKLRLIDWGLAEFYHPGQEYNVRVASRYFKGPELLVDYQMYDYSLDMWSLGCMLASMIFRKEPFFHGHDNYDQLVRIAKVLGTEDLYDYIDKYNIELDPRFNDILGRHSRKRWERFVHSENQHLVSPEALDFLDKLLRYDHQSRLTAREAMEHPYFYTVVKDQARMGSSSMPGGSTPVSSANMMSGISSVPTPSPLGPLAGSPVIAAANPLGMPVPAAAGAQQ

In patent EP2061765B1, “Serine-threonine protein kinase and PARP modulators” (Senhwa Biosciences, Inc., priority 2006, dated 2008):

Target: T1, recombinant human CK2 (Homo sapiens, UniProt P68400)
T1 construct: purchased Upstate
Assay: CK2 Assay (cell-free, radiometric)
Assay type: biochemical
Settings: 15uM ATP

| Structure (SMILES) | IC50 |
| --- | --- |
| COC(=O)c1ccc2c(c1)nc(NC1CC1)c1nc(SCc3ccccc3Cl)ncc12 | > 750 nM |
| CC(=O)Nc1ccc2c(c1)nc(Nc1cccc(C(F)(F)F)c1)c1nc(NC3CC3)ncc12 | > 750 nM |
| COC(=O)c1ccc2c(c1)nc(Nc1cccc(Cl)c1)c1ccncc12 [drawing 220] | > 500 nM |
| COC(=O)c1ccc2c(c1)nc(Nc1ccccc1)c1nc(SC)ncc12 [drawing 221] | > 500 nM |
| COC(=O)c1ccc2c(c1)nc(Nc1ccccc1)c1nc(S(C)(=O)=O)ncc12 [drawing 222] | > 500 nM |
| CNc1ncc2c(n1)c(Nc1ccccc1)nc1cc(C(=O)OC)ccc12 [drawing 223] | > 500 nM |
| CCOc1ncc2c(n1)c(Nc1cccc(C(F)(F)F)c1)nc1cc(C(=O)O)ccc12 [drawing 244] | > 750 nM |
| CN(C)c1ncc2c(n1)c(Nc1cccc(Cl)c1)nc1cc(C(=O)O)ccc12 [drawing 246] | > 750 nM |
| C#Cc1cccc(Nc2nc3cc(C(=O)OC)ccc3c3cnc(NOC)nc23)c1 [drawing 260] | > 750 nM |
| COC(=O)c1ccc2c(c1)nc(Nc1cccc(Cl)c1)c1nc(NCCC(N)=O)ncc12 [drawing 261] | > 750 nM |
| NC(=O)c1ccc2c(c1)nc(Nc1cccc(C(F)(F)F)c1)c1nc(NC3CC3)ncc12 [drawing 273] | > 750 nM |
| O=C(NC1CC1)c1ccc2c(c1)nc(Nc1cccc(C(F)(F)F)c1)c1nc(NC3CC3)ncc12 [drawing 274] | > 750 nM |
| CNC(=O)c1ccc2c(c1)nc(Nc1cccc(C(F)(F)F)c1)c1nc(NC3CC3)ncc12 [drawing 275] | > 750 nM |
| CC(C)OC(=O)Nc1ccc2c(c1)nc(Nc1cccc(C(F)(F)F)c1)c1nc(NC3CC3)ncc12 [drawing 280] | > 750 nM |
